This note sets out measurements from ChEMBL document CHEMBL1240489, “Discovery of N-{1-[3-(3-oxo-2,3-dihydrobenzo[1,4]oxazin-4-yl)propyl]piperidin-4-yl}-2-phenylacetamide (Lu AE51090): an allosteric muscarinic M1 receptor agonist with unprecedented selectivity and procognitive potential” (J Med Chem, 2010).

The species entered for the data set is Homo sapiens. Description: Protein binding in human plasma at 0.1 uM after 60 mins by LC/MS-MS analysis. The conditions noted are these: read-out: PPB (converted).

For `O=C(Cc1ccccc1)NC1CCN(CCCN2C(=O)COc3ccccc32)CC1`, the fraction unbound at 1 h, 0.1 µM is 0.28.
